These results are taken from patent publication US12589092B2, “Polycyclic compound acting as kinase inhibitor” (HANGZHOU INNOGATE PHARMA CO., LTD., priority 2020, dated 2026).

The chains behind the UniProt entries cited, without tags or fusion partners.
UniProt P11802, whole entry: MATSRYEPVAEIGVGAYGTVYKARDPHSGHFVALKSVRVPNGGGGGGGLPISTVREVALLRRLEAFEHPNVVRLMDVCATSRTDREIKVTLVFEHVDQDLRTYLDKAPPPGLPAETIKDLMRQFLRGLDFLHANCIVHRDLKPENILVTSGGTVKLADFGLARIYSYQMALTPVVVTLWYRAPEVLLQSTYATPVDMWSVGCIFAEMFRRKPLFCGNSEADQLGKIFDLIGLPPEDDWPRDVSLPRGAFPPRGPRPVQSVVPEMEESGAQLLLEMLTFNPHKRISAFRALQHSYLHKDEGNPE
UniProt Q00534, whole entry: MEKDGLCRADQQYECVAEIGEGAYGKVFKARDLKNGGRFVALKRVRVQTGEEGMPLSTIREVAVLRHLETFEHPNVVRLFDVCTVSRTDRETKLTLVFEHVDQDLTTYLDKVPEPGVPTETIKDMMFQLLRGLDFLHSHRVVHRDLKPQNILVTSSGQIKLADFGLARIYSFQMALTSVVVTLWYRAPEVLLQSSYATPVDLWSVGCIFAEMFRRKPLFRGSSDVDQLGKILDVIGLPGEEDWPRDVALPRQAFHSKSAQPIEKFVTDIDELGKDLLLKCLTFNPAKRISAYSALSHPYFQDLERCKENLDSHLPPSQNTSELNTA
UniProt P30281, whole entry partner: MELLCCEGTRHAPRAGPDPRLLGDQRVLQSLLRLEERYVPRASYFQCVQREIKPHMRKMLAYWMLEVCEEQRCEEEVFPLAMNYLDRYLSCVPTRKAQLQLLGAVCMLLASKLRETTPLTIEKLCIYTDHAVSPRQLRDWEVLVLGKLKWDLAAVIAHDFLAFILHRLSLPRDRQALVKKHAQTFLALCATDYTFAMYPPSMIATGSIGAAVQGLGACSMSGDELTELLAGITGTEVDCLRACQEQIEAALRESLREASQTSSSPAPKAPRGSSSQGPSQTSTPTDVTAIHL

Type in all cases: biochemical
For experiment [1], the target named is CDK4/CycD3 (Homo sapiens, UniProt P11802). Briefly: CDK4 kinase activity inhibition assay (caliper mobility shift). The following applies: read-out: CDK4 kinase inhibitory activity (IC50); CDK4/CycD3 10 nM, ATP 221 μM.
For experiment [2], the target named is CDK2/CycA2 (Homo sapiens, UniProt P24941). Kind of experiment: CDK2 kinase activity inhibition assay (caliper mobility shift). Particulars: read-out: CDK2 kinase inhibitory activity (IC50); CDK2/CycA2 12 nM, ATP 39 μM.
For experiment [3], the target named is CDK6/cycD3 (Homo sapiens, UniProt Q00534). Briefly: CDK6 kinase activity inhibition assay (caliper mobility shift). Particulars: read-out: CDK6 kinase inhibitory activity (IC50); CDK6/cycD3 15 nM, ATP 800 μM.

On to `CC(=O)c1c(C)c2cnc(Nc3ccc4c(c3)OC[C@@H]3CN(C5CNC5)CCN43)nc2n(C2CCCC2)c1=O`, for which the IC50 in experiment [1] is below 10 nM; in experiment [2], below 100 nM; in experiment [3] it was below 10 nM.

What is called IC50 is the concentration that inhibits the measured activity by half.
